From patent publication US20250129135A1, “Multi-Agonist and Use Thereof” (priority 2021, published 2025) come the findings set out here.

Amino acid sequences for entries named in this document (tags omitted). Residues count along the entry.
UniProt P47871, 26-477: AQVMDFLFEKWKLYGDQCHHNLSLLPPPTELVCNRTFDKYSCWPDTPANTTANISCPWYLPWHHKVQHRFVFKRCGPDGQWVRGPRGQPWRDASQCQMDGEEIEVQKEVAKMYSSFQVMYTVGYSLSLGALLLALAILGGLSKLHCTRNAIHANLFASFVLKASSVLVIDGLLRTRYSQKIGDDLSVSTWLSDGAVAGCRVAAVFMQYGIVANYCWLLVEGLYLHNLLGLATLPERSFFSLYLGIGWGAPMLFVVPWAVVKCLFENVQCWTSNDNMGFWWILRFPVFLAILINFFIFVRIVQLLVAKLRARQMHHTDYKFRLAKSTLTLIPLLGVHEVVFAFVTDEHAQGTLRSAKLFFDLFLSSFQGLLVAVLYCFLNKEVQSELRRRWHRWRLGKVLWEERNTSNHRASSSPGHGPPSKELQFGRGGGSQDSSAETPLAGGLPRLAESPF
UniProt P43220, 24-463: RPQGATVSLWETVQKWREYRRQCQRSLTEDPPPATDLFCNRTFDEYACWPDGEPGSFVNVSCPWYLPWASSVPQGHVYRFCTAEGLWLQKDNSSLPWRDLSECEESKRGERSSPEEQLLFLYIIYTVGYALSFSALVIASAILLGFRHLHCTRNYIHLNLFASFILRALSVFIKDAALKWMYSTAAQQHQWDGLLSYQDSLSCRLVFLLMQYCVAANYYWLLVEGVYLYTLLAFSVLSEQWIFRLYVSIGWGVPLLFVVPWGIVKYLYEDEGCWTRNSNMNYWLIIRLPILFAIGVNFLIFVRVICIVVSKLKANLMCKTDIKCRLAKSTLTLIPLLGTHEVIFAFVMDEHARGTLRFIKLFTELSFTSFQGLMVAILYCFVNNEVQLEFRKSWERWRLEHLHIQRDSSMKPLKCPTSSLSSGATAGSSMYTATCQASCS

Assay [1] deals with human primary liver cells. The format is cell-based. As to conditions: for Rel. A (Relative Activity) on human primary liver cells: relative to GCG. A digest of the protocol:
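cAMP readout after 60 min with detection reagent, following 60 min room-temperature compound incubation. Cells were primary human liver cells thawed at 37° C and resuspended in HBSS.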

Another assay has as its system RIN-m5F cells. It is filed as cell-based, rat. The gist of the method:
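After 60 min room-temperature exposure of HBSS-suspended RIN-m5F cells to compound and another 60 min with detection reagent, cellular cAMP level was determined.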

Another assay addresses T1, Human GIP R (Homo sapiens, UniProt P48546).
T1 construct: expressed in transfected cells; host or cells: CHO
T1 sequence (P48546 22-466): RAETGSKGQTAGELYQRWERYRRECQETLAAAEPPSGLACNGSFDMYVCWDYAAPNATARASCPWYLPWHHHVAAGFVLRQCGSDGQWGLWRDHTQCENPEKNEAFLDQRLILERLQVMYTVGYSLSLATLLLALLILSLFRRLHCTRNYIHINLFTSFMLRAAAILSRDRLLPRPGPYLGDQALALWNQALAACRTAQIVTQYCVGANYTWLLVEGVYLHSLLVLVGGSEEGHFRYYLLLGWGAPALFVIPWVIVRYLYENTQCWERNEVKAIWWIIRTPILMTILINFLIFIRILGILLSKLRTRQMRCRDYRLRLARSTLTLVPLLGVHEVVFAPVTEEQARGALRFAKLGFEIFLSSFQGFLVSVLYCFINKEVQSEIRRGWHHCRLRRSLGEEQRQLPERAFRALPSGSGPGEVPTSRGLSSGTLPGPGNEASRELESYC
As to the kind of experiment: cAMP (HTRF) activity in CHO cells stably overexpressing GIP receptor. It is filed as cell-based. The gist of the method:
(§1)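 Cells resuspended in HBSS are incubated with compound for 60 min at room temperature, then with HTRF cAMP detection reagent for a further 60 min. Concentration-response fits give agonist EC50 values in nM.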
(In general: In TR-FRET formats the signal depends on donor and acceptor labels being close together.)

A further assay deals with T2, Human GCG R (Homo sapiens, UniProt P47871).
T2 construct: expressed in transfected cells; host or cells: HEK-293
As to the kind of experiment: cAMP (HTRF) activity in HEK-293 cells stably overexpressing human GCG receptor. It is filed as cell-based. A digest of the protocol: as §1

Another assay concerns the target Human GLP-1R (Homo sapiens, UniProt P43220). As to the kind of experiment: cAMP (HTRF) activity in HEK-293 cells stably overexpressing human GLP-1 receptor. On the set-up: expressed in transfected cells; host or cells: HEK-293. The format is cell-based. The gist of the method: as §1
In the next assay the test system is 3T3-L1 adipocytes. As to conditions: for Rel. A (Relative Activity) on 3T3-L1 adipocyte: relative to GIP. A digest of the protocol:
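Compound-induced cAMP was measured in mature 3T3-L1 adipocytes after 60 min room-temperature exposure to a 10-concentration, 3-fold dilution series, followed by 60 min with kit detection reagent and curve fitting. Differentiation used IBMX/dexamethasone/insulin (5 days), insulin with 10 uM rosiglitazone (3 days), then 2–3 days in 10% FBS.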

[2] abbreviates: cAMP, at least 3 independent tests, read-out: EC50 on human primary liver cells.
Where [3] appears, read: cAMP, at least 3 independent tests, read-out: EC50 on RIN-m5F rat pancreatic islet tumor cells.
Where [4] appears, read: EC50 of human GIP / EC50 of compound.
Where [5] appears, read: EC50 of human GCG / EC50 of compound.
Setting [6] is: EC50 of human GLP-1 (7-37) / EC50 of compound.
Setting [7] is: read-out: EC50 on mouse 3T3-L1 adipocyte, cAMP, at least 3 independent tests.

Structures are written as SMILES. Like-named read-outs stand apart in the source and are kept apart here.

With `CC[C@H](C)[C@H](NC(=O)[C@H](Cc1ccccc1)NC(=O)[C@H](C)NC(=O)C(C)(C)NC(=O)[C@H](CCC(N)=O)NC(=O)[C@H](C)NC(=O)[C@H](CCCCNC(=O)COCCOCCNC(=O)COCCOCCNC(=O)CC[C@H](NC(=O)CCCCCCCCCCCCCCCCCCC(=O)O)C(=O)O)NC(=O)[C@H](CCCCN)NC(=O)[C@H](CC(=O)O)NC(=O)[C@H](CC(C)C)NC(=O)[C@](C)(CC(C)C)NC(=O)[C@@H](NC(=O)[C@H](CO)NC(=O)[C@H](Cc1ccc(O)cc1)NC(=O)[C@H](CC(=O)O)NC(=O)[C@H](CO)NC(=O)[C@@H](NC(=O)[C@](C)(Cc1ccccc1F)NC(=O)[C@@H](NC(=O)CNC(=O)[C@H](CCC(N)=O)NC(=O)C(C)(C)NC(=O)[C@@H](N)Cc1ccc(O)cc1)[C@@H](C)O)[C@@H](C)O)[C@@H](C)CC)C(=O)N[C@@H](CCC(=O)O)C(=O)N[C@@H](Cc1ccccc1)C(=O)N[C@@H](CC(C)C)C(=O)N[C@@H](CC(C)C)C(=O)N[C@@H](CCC(=O)O)C(=O)NC(C)(C)C(=O)N[C@@H](Cc1c[nH]cn1)C(=O)N1CCC[C@H]1C(=O)N[C@@H](CO)C(=O)N[C@@H](CO)C(=O)NCC(=O)N[C@@H](C)C(=O)N1CCC[C@H]1C(=O)N1CCC[C@H]1C(=O)NC1(C(=O)N[C@@H](CO)C(N)=O)CC1` [Compound 31], the EC50 (as a rule, the concentration that produces a half-maximal response) came out at 0.454 nM in assay [1] (setting [2]), 0.274 nM in the assay on RIN-m5F cells (setting [3]), 0.012 nM on Human GLP-1R and 0.677 nM in the assay on 3T3-L1 adipocytes (setting [7]). The “Rel. A (Relative Activity) on human primary liver cells” value in assay [1] stood at 857.05%. Further, the “Rel. A (Relative Activity) on RIN-m5F” value in the assay with RIN-m5F cells (relative to GLP-1(7-37)) is 376.64%. The “Human GIP R Rel. A (Relative Activity)” value on Human GIP R (setting [4]) is listed as 2011.11%. At Human GCG R (setting [5]), the “Human GCG R Rel. A (Relative Activity)” value is given as 211.11%. Besides, the “Human GLP-1R Rel. A (Relative Activity)” value on Human GLP-1R (setting [6]) was determined as 366.67%. For the same molecule, the “Rel. A (Relative Activity) on 3T3-L1 adipocyte” value in the assay on 3T3-L1 adipocytes was determined as 561.60%.

For the molecule `CC[C@H](C)[C@H](NC(=O)[C@H](Cc1ccccc1)NC(=O)[C@H](C)NC(=O)C(C)(C)NC(=O)[C@H](CCC(N)=O)NC(=O)[C@H](C)NC(=O)[C@H](CCCCNC(=O)COCCOCCNC(=O)COCCOCCNC(=O)CC[C@H](NC(=O)CCCCCCCCCCCCCCCCCCC(=O)O)C(=O)O)NC(=O)[C@H](CCCCN)NC(=O)[C@H](CC(=O)O)NC(=O)[C@H](CC(C)C)NC(=O)[C@H](Cc1ccccc1)NC(=O)[C@@H](NC(=O)[C@H](CO)NC(=O)[C@H](Cc1ccc(O)cc1)NC(=O)[C@H](CC(=O)O)NC(=O)[C@H](CO)NC(=O)[C@@H](NC(=O)[C@](C)(Cc1ccccc1F)NC(=O)[C@@H](NC(=O)CNC(=O)[C@H](CCC(N)=O)NC(=O)C(C)(C)NC(=O)[C@@H](N)Cc1ccc(O)cc1)[C@@H](C)O)[C@@H](C)O)[C@@H](C)CC)C(=O)N[C@@H](CCC(=O)O)C(=O)N[C@@H](Cc1ccc(O)cc1)C(=O)N[C@@H](CC(C)C)C(=O)N[C@@H](CC(C)C)C(=O)N[C@@H](CCC(=O)O)C(=O)NC(C)(C)C(=O)N[C@@H](Cc1c[nH]cn1)C(=O)N1CCC[C@H]1C(=O)N[C@@H](CO)C(=O)N[C@@H](CO)C(=O)NCC(=O)N[C@@H](C)C(=O)N1CCC[C@H]1C(=O)N1CCC[C@H]1C(=O)NC1(C(=O)N[C@@H](CO)C(N)=O)CC1` [Compound 32], the EC50 in assay [1] (setting [2]) is 0.58 nM; in the assay with RIN-m5F cells (setting [3]), 0.208 nM; on Human GIP R it was 0.011 nM; on Human GCG R, 0.017 nM; at Human GLP-1R it was 0.014 nM; in the assay on 3T3-L1 adipocytes (setting [7]) it was 1.11 nM. Besides, in assay [1], the “Rel. A (Relative Activity) on human primary liver cells” value is listed as 670.86%. The “Rel. A (Relative Activity) on RIN-m5F” value in the assay with RIN-m5F cells (relative to GLP-1(7-37)) amounted to 496.15%. Further, on Human GIP R (setting [4]), the “Human GIP R Rel. A (Relative Activity)” value stood at 1645.45%. Besides, at Human GCG R (setting [5]), the “Human GCG R Rel. A (Relative Activity)” value is on record as 335.29%. Further, the “Human GLP-1R Rel. A (Relative Activity)” value at Human GLP-1R (setting [6]) turned out to be 314.29%. Also, the “Rel. A (Relative Activity) on 3T3-L1 adipocyte” value in the assay on 3T3-L1 adipocytes came out at 343.76%.

`CC[C@H](C)[C@H](NC(=O)[C@H](Cc1ccccc1)NC(=O)[C@H](C)NC(=O)C(C)(C)NC(=O)[C@H](CCC(N)=O)NC(=O)[C@H](C)NC(=O)[C@H](CCCCNC(=O)COCCOCCNC(=O)COCCOCCNC(=O)CC[C@H](NC(=O)CCCCCCCCCCCCCCCCCCC(=O)O)C(=O)O)NC(=O)[C@H](CCCCN)NC(=O)[C@H](CC(=O)O)NC(=O)[C@H](CC(C)C)NC(=O)[C@](C)(CC(C)C)NC(=O)[C@@H](NC(=O)[C@H](CO)NC(=O)[C@H](Cc1ccc(O)cc1)NC(=O)[C@H](CC(=O)O)NC(=O)[C@H](CO)NC(=O)[C@@H](NC(=O)[C@](C)(Cc1ccccc1)NC(=O)[C@@H](NC(=O)CNC(=O)[C@H](CCC(N)=O)NC(=O)C(C)(C)NC(=O)[C@@H](N)Cc1ccc(O)cc1)[C@@H](C)O)[C@@H](C)O)[C@@H](C)CC)C(=O)N[C@@H](CCC(=O)O)C(=O)N[C@@H](Cc1ccccc1)C(=O)N[C@@H](CC(C)C)C(=O)N[C@@H](CC(C)C)C(=O)N[C@@H](CCC(=O)O)C(=O)NCC(=O)NCC(=O)N1CCC[C@H]1C(=O)N[C@@H](CO)C(=O)N[C@@H](CO)C(=O)NC(C)(C)C(=O)N[C@@H](Cc1c[nH]cn1)C(=O)N1CCC[C@H]1C(=O)N1CCC[C@H]1C(=O)N1CCC[C@H]1C(=O)N[C@@H](CO)C(N)=O` [Compound 36]: in assay [1], the EC50 was 0.612 nM and the “Rel. A (Relative Activity) on human primary liver cells” value was determined as 635.78%. Moreover, in the assay on RIN-m5F cells, a half-maximal effect (EC50) was put at 0.2 nM and the “Rel. A (Relative Activity) on RIN-m5F” value is given as 516.00%. In addition, on Human GIP R, a half-maximal response (EC50) required 0.007 nM and the “Human GIP R Rel. A (Relative Activity)” value is given as 2585.71%. Besides, at Human GCG R, the “Human GCG R Rel. A (Relative Activity)” value turned out to be 126.67%. The “Human GLP-1R Rel. A (Relative Activity)” value at Human GLP-1R is listed as 176.00%. Besides, the EC50 at Human GLP-1R (stable transfected cell cAMP activity, at least 3 independent tests, read-out: Human GLP-1R EC50) came out at 0.025 nM. In addition, in the assay with 3T3-L1 adipocytes, the concentration giving a half-maximal response (EC50) amounted to 1.02 nM and the “Rel. A (Relative Activity) on 3T3-L1 adipocyte” value is listed as 373.84%.
